## Ab-14 heavy chain CDR variants: yeast mating affinities

From the AlphaSeq antibody data of Li et al. 2023 (doi:10.1038/s41467-023-39022-2), copy in the FLAb collection.

Target peptide (SARS-CoV-2 spike, HR2 region): PDVDLGDISGINAS

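These sequences belong to a second round, designed from the earlier measurements on random variants of the parent. Group labels follow the data file (Ctrl: baseline library sampled from a position-specific scoring matrix, with some repeated check sequences; Rand: our label for a block that the file lists under HC and that is probably the random mutants of the ten best first-round binders; En: ensemble of fine-tuned language models; GP: Gaussian process model; GPLM: also part of the Gaussian process libraries; HC: hill climbing; Gen: genetic algorithm; Gibbs: Gibbs sampling; a sequence that several methods proposed may carry one label only). AlphaSeq pools MATa yeast showing the antibodies with MATalpha yeast showing the peptide. Mating (16 h, 30 °C) was followed by selection of diploids and sequencing of their barcodes. Scores were corrected for input abundance and mapped to Kd with protein pairs of known affinity run in the same pool. Each pool was mated in six replicate cultures.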

The variants keep the light chain, the linker and the frameworks of Ab-14 (scFv order VH, three GGGGS repeats, VL).
VH: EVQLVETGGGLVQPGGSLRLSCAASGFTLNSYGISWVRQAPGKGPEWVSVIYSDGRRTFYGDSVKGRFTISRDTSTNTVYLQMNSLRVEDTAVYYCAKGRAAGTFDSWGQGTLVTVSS
VL: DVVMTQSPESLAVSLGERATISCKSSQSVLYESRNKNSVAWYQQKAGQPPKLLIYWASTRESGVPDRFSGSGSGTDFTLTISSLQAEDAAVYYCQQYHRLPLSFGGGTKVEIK

Variants are written as CDR1, CDR2 and CDR3 of the heavy chain (limits as in the source). Parent: GFTLNSYGIS, VIYSDGRRTFYGDSVK, GRAAGTFDS. This list holds designs with at most six substitutions. Scale: log10 of Kd in nM, estimated from mating counts; low values are strong binders. Averages over replicates are reported, and they cover detected replicates only. "no signal" means that the variant was in the library but no mating with the target was seen in any replicate; the authors take this as a sign of poor binding, and no number exists. Of ten entries with the parent sequence, four were seen in most replicates (averages 0.34 to 2.37), three in one and three in none, so single entries are noisy.

Variant GFELNSYGIS, VIYSDGQRTFYGDSVK, GRTAGTFDE [GP_Gibbs] showed 1.07 (6 of 6 replicates; controls 0 of 18).
Variant GFELNSYGIS, VIYSDGQRTFYVDSVK, GKTAGTFDS [GP_Gibbs] showed no signal (0 of 6 replicates; controls 0 of 18).
Variant GFTLNEYGIS, VIYSDGRRTFYTDTVK, GRTAGTFDS [Rand] showed 1.19 (6 of 6 replicates; controls 1 of 18).
Variant GFQLNEYGIQ, VIYSDGRRTFYGDSVR, GRAAGTGDL [Ctrl] showed no signal (0 of 6 replicates; controls 0 of 18).
Variant GFDLNSYGIS, VIYSDGRRTFYTDSVK, GDAAGTFDS [GPLM_Gibbs] showed 0.34 (6 of 6 replicates; controls 0 of 18).
Variant GFTLDSYGIS, VIYSDGRRTFYADSVK, GRVAGTFDS [GPLM_Gen] showed -0.10 (6 of 6 replicates; controls 2 of 18).
Variant GFTLNSYGRS, VIYSDGRRTFYADSVK, GKAAGTFDS [Ctrl] showed no signal (0 of 6 replicates; controls 0 of 18).
Variant GFSLNTYGIS, VIYSDGRRTFYIDSVK, GNAAGTFDS [GPLM_Gibbs] showed 0.23 (6 of 6 replicates; controls 0 of 18).
Variant GFSLNSYGIS, VIYSDGERTAYGDSVK, GMNAGTFDS [Ctrl] showed 0.09 (6 of 6 replicates; controls 0 of 18).
Variant GFTLNSYGIS, VIYSDGRRTFYSDSVK, GDAAGTFDS [Ctrl+GPLM_Gen] showed 0.77 (11 of 12 replicates; controls 1 of 36).
Variant GFTLLSYGIS, VIYSDGRRTFYGDSVK, GRAAGTFDQ [Ctrl] showed no signal (0 of 6 replicates; controls 1 of 18).
Variant GFTLNDYGIS, VIYSDGRRTWYGDSVK, GQAAGTFDS [GP_HC] showed 0.69 (6 of 6 replicates; controls 1 of 18).
Variant GFTLNDYGIS, VIYSDGRRTFYGDSVK, GRIAGTFDI [GPLM_HC] showed 0.48 (6 of 6 replicates; controls 0 of 18).
Variant GFNLNSYGIS, VIYSDGRRTFYGDSVK, GWQAGTFDS [GP_Gen] showed 2.11 (6 of 6 replicates; controls 0 of 18).
Variant GFTLNSYGIS, VIYSDGRRTFYGDEVK, GRAVGTFDS [Ctrl] showed no signal (0 of 6 replicates; controls 0 of 18).
Variant GFNLNSYGIS, VIYSDGRRTFYGDSVK, GRAAGEFDS [Ctrl] showed no signal (0 of 6 replicates; controls 0 of 18).
Variant GFSLNSYGIS, VIYSDGRRTFYVDSVK, GRTAGTFDT [GPLM_Gen] showed 1.08 (4 of 6 replicates; controls 0 of 18).
Variant GFSLNSYGIS, VIYSDGRRTFYGDSVK, GRTAGTFDQ [GPLM_Gen] showed 0.58 (6 of 6 replicates; controls 0 of 18).
Variant GFTLNSYGIS, VIYSDGRRTFYSDSVK, GMAGGTFDN [GP_HC] showed 1.90 (4 of 6 replicates; controls 0 of 18).
Variant GFDLNSYGIS, VIYADGRRTFYGDFVK, GRAAGTFDS [Ctrl] showed 0.14 (6 of 6 replicates; controls 0 of 18).
Variant GTTLNSYGIS, VIYSDGRKNFYGDSVK, GRAAGTFDS [Ctrl] showed no signal (0 of 6 replicates; controls 0 of 18).
Variant GFTLNEYGIS, VIYSDGRRTFYGDSVK, GQIAGTFDQ [GP_HC] showed 0.14 (6 of 6 replicates; controls 1 of 18).
Variant GFDLNEYGIS, VIYADGRRTFYSDSVK, GEAAGTFDL [En_HC] showed -0.32 (6 of 6 replicates; controls 0 of 18).
Variant GFTLNSYGIS, VIYSDGRRTFYLDSVK, GKAPKTFDS [Ctrl] showed no signal (0 of 6 replicates; controls 1 of 18).
Variant GFSLNSYGIS, VIYSDGRRTFYGDSVK, GRTAGTFDR [GPLM_Gen] showed 0.90 (6 of 6 replicates; controls 0 of 18).
Variant GFTLNSYGIS, VIYSDGRRTQYSDSVK, GRAAHTFDS [Ctrl] showed 1.19 (1 of 6 replicates; controls 0 of 18).
Variant GFTINSYGIS, VIYSDGRRTFYDDSVK, GRAAGTFDS [Ctrl] showed 0.55 (6 of 6 replicates; controls 0 of 18).
Variant GFTLNSYGIS, VIYSDGRRTFYDDNVK, GQEAGTFDS [GP_HC] showed 1.51 (6 of 6 replicates; controls 1 of 18).
Variant GFDLNSYGIS, VIYSDGRRTFYGDSVK, GRAAAFFDS [Ctrl] showed no signal (0 of 6 replicates; controls 0 of 18).
Variant GFTLNSYGIS, VIYWDGRRTFYGDSVK, GRAAVTFDS [Ctrl] showed no signal (0 of 6 replicates; controls 1 of 18).
Variant GFTLNSYGIS, VIYSDGCRTFYGDSVK, GKAAGTFDS [Ctrl] showed no signal (0 of 6 replicates; controls 0 of 18).
Variant GFTVNDYGIS, VIYSDGRRTAYGDSVK, GRAAGYFDS [Ctrl] showed no signal (0 of 6 replicates; controls 0 of 18).
Variant GFTLNEYGIS, VIYSDGRRTFYGDSVK, GRAAVTFDR [GPLM_HC] showed no signal (0 of 6 replicates; controls 0 of 18).
Variant GFTLNSYGIS, VIYSDGLRVFYGDSVK, GTAIGTFDS [Ctrl] showed no signal (0 of 6 replicates; controls 0 of 18).
Variant GFELNSYGIS, VIYSDGRRTFYDDSVK, GRQAGTFDS [GP_Gen] showed 1.31 (6 of 6 replicates; controls 1 of 18).
Variant GVALNSYGIS, VIYSDGRRTFYIDSVK, GRAAGTFDT [Ctrl] showed no signal (0 of 6 replicates; controls 0 of 18).

A sequence measured in both rounds can read differently, since the two assays cover different ranges. The authors averaged sequences with at least three values out of six and counted those with two or fewer as poor binders. As a blank, each scFv also met three strains without target: over all heavy chain designs, 1% of these pairings were detected, typically at 2.08 and seldom below 0.84. Also given: how often the same scFv was detected with the empty control strains. Some sequences occur more than once in the pool; their replicates are pooled.